Experiments:
[1] = Particle size distribution by DLS (dynamic light scattering); type: physicochemical
Method: In the following examples, elemental analysis of carbon, hydrogen and nitrogen for the compounds of the present invention was performed using Perkin-Elmer C, H and N analyzer. Hydrogen and nitrogen nuclear magnetic resonance spectra were measured using Varian Gemini-500 NMR Spectrometer. The particle size distributions of polyphosphazene carrier polymers and their drug conjugates were measured using Malvem Zeta-sizer (Nano-ZS).

[2] = Pharmacokinetic study after IV injection; type: in vivo, Sprague-Dawley rat; conditions: rat, plasma docetaxel, mean
[3] = tested on: gastric cancer cell line MKN-28; test: Nude mouse xenograft trial, MKN-28; conditions: MKN-28 xenograft mice, 40 days

With “[NP(MPEG550)1.5(LysEt-2′-aconitic-docetaxel)0.5]n [Example 14]” the “mean diameter (particle size distribution)” value ([1]; 0.2% in distilled water, DLS) was 60 nm, the “change of micelle size with temperature” value ([1]; temperature range of 5˜70° C.) was “not changed significantly” and the AUCINF [2] was 1.439 µg·h/mL. The AUClast [2] was 1.192 µg·h/mL, the C0 [2] was 0.263 µg/mL and the Cl [2] was 0.984 L/h. For the same substance, the Vz [2] was 7.287 L, the t1/2 [2] was 6.115 h and the “time of maximum tumor accumulation post-injection” value (SCC7 tumor cells; Cy5.5 labeled, IV) was 48 h. For the same substance, the “accumulation in tumor versus other organs (fluorescence)” value (SCC7 tumor cells; Cy5.5 labeled, IV, 24 h and 48 h post injection) was “accumulated dominantly in tumor”, the “tumor selectivity compared with polyphosphazene carrier polymer” value (SCC7 tumor cells; quantitative biodistribution, FIG. 8) was “much higher tumor selectivity” and the body weight changes [3] was “no significant body weight changes”.

Source: patent publication US11180615B2, “Cationic polyphosphazene compound, polyphosphazenes-drug conjugate compound and method for preparing same” (CNPHARM CO., LTD., priority 2016, dated 2021)
